# Assay results published in ChEMBL document CHEMBL2218924, “A broad activity screen in support of a chemogenomic map for kinase signalling research and drug discovery” (Biochem J, 2013).
# Sequences of proteins named here, by UniProt entry; tags and fusion partners are left off. A change or cut given only in a name is not applied to a line headed by its entry.
# UniProt Q9UQB9: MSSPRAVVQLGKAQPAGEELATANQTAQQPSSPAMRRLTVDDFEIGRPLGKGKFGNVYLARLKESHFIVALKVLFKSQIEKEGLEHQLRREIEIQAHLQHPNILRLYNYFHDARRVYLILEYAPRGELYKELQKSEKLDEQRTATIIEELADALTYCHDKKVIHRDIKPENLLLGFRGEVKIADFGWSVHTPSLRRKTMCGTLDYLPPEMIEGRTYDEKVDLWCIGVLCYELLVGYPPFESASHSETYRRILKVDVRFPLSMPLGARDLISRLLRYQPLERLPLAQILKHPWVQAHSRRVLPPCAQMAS
# UniProt P51451: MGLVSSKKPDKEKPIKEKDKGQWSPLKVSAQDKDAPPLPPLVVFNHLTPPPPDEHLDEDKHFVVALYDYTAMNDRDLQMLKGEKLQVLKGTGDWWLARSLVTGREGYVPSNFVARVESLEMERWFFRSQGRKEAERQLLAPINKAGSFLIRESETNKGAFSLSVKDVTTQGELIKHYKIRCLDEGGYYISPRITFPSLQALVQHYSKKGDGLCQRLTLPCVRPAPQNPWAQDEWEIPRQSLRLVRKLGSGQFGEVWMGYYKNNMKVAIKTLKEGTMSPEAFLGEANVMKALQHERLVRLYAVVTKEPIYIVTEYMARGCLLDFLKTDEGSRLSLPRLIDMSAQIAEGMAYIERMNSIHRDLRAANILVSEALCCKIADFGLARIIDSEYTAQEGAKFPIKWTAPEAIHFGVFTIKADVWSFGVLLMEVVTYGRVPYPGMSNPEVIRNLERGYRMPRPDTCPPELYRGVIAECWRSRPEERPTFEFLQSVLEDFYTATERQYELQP
# UniProt O96017, whole entry: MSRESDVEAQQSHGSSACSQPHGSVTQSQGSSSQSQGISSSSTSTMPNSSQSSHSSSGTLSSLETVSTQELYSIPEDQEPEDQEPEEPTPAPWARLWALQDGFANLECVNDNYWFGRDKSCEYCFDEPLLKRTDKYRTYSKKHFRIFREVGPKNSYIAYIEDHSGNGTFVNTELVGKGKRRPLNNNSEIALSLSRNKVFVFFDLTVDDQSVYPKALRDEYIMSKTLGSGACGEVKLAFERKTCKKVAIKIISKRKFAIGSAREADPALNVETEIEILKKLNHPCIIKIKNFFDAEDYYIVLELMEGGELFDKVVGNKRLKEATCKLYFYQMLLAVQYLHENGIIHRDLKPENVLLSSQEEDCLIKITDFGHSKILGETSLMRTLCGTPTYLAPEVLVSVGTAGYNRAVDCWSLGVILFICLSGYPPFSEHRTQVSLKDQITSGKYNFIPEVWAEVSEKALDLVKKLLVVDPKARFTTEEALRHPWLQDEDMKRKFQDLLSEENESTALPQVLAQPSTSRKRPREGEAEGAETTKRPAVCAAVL
# UniProt P48730: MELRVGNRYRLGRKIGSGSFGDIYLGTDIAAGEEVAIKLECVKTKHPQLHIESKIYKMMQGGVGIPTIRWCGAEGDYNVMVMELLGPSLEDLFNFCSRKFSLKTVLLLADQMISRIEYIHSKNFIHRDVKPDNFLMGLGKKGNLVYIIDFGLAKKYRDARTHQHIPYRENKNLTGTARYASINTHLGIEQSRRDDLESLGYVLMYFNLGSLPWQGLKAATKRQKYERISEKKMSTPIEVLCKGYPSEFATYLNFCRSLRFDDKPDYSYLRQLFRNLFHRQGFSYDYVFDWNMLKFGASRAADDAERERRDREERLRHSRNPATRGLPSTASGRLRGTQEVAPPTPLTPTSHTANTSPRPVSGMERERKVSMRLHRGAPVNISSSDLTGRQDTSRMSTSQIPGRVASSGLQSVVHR
# UniProt P19784, whole entry, looked up: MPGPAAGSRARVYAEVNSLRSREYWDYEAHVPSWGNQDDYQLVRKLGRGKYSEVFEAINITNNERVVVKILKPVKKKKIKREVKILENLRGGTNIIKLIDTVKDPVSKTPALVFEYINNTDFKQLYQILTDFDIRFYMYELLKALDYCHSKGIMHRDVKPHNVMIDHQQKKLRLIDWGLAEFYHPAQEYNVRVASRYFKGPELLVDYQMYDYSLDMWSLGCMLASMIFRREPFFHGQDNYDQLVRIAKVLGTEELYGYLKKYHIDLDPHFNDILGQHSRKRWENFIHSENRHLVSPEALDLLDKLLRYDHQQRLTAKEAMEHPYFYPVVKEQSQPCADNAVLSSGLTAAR
# UniProt Q13555: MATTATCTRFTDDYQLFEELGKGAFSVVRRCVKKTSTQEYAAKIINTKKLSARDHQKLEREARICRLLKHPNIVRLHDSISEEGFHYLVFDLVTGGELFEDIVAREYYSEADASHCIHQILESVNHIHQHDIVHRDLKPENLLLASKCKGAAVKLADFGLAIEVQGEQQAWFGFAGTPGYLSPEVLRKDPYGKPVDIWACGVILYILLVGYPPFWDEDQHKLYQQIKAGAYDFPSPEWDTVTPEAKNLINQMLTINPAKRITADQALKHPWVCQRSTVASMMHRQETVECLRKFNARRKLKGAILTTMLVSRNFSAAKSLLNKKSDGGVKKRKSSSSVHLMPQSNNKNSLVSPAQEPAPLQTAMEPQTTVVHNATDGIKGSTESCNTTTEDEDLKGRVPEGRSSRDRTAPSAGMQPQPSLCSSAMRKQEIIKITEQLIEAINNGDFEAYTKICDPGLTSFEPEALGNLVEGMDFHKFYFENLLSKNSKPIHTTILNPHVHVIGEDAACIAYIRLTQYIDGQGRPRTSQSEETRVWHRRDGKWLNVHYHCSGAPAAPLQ
# UniProt P53355: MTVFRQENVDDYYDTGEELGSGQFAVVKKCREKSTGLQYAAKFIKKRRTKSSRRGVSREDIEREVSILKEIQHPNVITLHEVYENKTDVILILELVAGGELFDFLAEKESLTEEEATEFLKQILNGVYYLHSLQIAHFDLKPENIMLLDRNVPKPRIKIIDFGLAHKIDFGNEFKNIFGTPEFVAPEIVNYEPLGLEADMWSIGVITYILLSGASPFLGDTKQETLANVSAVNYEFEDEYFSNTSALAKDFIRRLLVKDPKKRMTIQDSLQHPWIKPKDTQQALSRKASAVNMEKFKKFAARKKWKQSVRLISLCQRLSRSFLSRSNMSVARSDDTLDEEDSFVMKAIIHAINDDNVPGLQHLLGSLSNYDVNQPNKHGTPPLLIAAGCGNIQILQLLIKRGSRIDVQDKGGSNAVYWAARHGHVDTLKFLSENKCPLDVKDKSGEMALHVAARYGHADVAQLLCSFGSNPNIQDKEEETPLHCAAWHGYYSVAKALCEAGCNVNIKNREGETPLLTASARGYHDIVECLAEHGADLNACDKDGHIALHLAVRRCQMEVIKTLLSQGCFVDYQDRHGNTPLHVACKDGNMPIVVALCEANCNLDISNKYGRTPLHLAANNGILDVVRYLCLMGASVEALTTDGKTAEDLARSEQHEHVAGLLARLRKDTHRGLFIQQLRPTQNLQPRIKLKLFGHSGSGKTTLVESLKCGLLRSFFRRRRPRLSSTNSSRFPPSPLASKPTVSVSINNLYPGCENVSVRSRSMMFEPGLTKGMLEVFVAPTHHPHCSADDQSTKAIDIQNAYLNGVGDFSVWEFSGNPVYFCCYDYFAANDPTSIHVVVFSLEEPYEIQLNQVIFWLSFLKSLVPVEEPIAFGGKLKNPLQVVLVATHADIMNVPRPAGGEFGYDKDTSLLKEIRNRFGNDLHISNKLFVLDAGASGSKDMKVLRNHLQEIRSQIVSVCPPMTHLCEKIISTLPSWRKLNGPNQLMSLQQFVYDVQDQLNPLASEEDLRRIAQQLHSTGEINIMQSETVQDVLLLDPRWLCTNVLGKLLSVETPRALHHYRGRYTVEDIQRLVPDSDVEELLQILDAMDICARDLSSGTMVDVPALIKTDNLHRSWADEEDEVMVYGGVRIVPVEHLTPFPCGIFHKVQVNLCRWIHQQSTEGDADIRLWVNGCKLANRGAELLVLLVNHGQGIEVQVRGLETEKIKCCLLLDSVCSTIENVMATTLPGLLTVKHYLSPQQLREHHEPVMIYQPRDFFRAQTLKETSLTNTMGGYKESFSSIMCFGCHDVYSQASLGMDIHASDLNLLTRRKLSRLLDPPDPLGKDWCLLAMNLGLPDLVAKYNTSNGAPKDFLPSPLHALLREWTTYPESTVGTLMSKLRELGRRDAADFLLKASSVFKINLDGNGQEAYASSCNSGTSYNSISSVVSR
# UniProt Q9UIK4: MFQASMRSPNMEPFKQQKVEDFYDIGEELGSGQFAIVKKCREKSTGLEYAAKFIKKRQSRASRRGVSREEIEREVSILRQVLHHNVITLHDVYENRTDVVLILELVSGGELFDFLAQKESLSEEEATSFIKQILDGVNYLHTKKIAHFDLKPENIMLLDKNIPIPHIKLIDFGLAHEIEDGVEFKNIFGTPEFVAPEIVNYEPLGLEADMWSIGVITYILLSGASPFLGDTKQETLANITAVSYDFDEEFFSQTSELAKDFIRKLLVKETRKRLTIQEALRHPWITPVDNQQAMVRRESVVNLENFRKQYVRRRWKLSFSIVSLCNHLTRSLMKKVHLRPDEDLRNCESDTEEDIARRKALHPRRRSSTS
# UniProt Q9UEE5: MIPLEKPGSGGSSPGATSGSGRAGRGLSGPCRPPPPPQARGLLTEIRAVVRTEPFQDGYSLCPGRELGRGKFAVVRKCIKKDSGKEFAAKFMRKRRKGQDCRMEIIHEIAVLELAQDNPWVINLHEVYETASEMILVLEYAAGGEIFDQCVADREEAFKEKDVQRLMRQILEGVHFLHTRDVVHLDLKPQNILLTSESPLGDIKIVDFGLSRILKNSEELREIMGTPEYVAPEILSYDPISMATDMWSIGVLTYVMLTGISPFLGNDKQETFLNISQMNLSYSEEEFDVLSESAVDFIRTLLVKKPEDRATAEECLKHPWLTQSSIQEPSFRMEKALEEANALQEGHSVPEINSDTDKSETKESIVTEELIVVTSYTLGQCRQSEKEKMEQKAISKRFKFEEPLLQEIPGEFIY
# UniProt Q92630: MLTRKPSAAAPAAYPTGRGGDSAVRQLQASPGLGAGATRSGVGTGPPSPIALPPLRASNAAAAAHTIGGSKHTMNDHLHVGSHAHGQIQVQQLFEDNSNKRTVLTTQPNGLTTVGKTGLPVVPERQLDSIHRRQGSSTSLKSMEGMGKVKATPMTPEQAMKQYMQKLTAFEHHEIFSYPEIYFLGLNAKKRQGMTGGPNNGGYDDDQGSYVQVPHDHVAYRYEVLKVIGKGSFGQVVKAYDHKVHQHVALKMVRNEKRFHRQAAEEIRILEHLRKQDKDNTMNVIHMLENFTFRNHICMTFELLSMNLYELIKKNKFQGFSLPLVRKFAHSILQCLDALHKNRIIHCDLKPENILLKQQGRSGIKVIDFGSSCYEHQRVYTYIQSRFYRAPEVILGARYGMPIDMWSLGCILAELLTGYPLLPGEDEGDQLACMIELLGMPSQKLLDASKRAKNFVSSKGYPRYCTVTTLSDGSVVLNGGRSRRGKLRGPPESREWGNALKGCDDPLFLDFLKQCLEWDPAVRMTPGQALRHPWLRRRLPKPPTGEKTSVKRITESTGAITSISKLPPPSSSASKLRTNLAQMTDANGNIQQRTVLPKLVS
# UniProt P29317, whole entry: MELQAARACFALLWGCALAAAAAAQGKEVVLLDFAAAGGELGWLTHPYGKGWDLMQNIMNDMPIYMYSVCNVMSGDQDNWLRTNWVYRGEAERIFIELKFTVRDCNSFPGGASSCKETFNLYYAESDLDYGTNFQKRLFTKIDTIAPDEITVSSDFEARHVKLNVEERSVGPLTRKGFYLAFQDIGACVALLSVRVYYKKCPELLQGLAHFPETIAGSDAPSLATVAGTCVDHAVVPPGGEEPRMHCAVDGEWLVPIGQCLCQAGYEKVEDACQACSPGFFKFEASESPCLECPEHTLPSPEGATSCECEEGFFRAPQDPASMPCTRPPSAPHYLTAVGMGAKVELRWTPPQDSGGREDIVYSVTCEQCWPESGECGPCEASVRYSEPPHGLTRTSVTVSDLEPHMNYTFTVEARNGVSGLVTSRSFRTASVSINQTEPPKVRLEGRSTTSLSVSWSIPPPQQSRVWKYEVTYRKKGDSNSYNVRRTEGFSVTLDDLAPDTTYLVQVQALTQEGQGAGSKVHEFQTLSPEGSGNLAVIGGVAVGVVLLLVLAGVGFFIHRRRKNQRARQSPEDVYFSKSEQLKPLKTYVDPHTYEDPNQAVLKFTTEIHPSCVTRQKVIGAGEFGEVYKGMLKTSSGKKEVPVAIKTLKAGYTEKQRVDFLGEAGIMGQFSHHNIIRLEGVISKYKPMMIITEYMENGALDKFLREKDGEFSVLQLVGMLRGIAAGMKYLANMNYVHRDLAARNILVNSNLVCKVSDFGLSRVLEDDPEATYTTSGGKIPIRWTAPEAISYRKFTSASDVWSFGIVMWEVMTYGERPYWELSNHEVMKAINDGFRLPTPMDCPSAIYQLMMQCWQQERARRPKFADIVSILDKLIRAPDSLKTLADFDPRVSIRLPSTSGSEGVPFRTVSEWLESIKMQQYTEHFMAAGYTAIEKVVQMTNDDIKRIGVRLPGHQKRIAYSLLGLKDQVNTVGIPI
# For part of these data: The strong results were mostly taken out for another list; the other results follow. No rule for the calls is given here. The entries are a selection whose mix differs from that of the whole data set.
# What was measured:
# [1] = target: Protein kinase C zeta type (Homo sapiens) (UniProt Q05513); conditions: at 1 µM
# [2] = target: Tyrosine-protein kinase ABL1 (Homo sapiens) (UniProt P00519); conditions: at 1 µM
# [3] = target: Aurora kinase A (Homo sapiens) (UniProt O14965); conditions: at 1 µM
# [4] = target: Aurora kinase B (Homo sapiens) (UniProt Q96GD4); conditions: at 1 µM
# [5] = target: Aurora kinase C (Homo sapiens) (UniProt Q9UQB9); conditions: at 1 µM
# [6] = target: Tyrosine-protein kinase receptor UFO (Homo sapiens) (UniProt P30530); conditions: at 1 µM
# [7] = target: Protein-tyrosine kinase 6 (Homo sapiens) (UniProt Q13882); conditions: at 10 µM
# [8] = target: Tyrosine-protein kinase BTK (Homo sapiens) (UniProt Q06187); conditions: at 1 µM
# [9] = target: Tyrosine-protein kinase BTK (Homo sapiens) (UniProt Q06187); conditions: at 10 µM
# [10] = target: Tyrosine-protein kinase Blk (Homo sapiens) (UniProt P51451); conditions: at 1 µM
# [11] = target: T1, Serine/threonine-protein kinase BRSK2 (Homo sapiens) (UniProt Q8IWQ3); conditions: at 1 µM
# T1 sequence (whole entry): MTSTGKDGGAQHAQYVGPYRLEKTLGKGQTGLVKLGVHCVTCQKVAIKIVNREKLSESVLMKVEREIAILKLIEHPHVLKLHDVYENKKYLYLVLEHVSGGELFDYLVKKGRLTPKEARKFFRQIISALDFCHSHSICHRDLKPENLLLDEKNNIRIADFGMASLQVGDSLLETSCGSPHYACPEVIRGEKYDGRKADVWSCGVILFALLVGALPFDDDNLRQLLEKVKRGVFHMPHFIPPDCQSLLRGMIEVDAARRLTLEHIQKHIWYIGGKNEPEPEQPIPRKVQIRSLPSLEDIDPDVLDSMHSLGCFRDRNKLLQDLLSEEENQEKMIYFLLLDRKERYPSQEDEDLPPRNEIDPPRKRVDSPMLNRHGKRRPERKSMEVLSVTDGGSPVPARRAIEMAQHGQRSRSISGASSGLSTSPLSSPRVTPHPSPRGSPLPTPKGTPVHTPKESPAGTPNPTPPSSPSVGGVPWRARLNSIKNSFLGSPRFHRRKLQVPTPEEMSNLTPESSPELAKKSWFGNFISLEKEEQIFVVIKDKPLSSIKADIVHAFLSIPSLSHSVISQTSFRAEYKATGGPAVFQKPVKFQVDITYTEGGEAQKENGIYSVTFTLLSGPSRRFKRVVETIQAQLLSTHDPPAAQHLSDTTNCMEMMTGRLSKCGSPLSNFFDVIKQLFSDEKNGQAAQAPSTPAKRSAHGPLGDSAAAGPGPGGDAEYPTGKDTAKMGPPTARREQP
# [12] = target: Serine/threonine-protein kinase Chk2 (Homo sapiens) (UniProt O96017); conditions: at 1 µM
# [13] = target: Casein kinase I isoform gamma-1 (Homo sapiens) (UniProt Q9HCP0); conditions: at 1 µM
# [14] = target: Casein kinase I isoform gamma-1 (Homo sapiens) (UniProt Q9HCP0); conditions: at 10 µM
# [15] = target: Casein kinase I isoform delta (Homo sapiens) (UniProt P48730); conditions: at 1 µM
# [16] = target: Casein kinase II subunit alpha' (Homo sapiens) (UniProt P19784); conditions: at 10 µM
# [17] = target: Calcium/calmodulin-dependent protein kinase type II subunit gamma (Homo sapiens) (UniProt Q13555); conditions: at 1 µM
# [18] = target: Death-associated protein kinase 1 (Homo sapiens) (UniProt P53355); conditions: at 1 µM
# [19] = target: Death-associated protein kinase 2 (Homo sapiens) (UniProt Q9UIK4); conditions: at 1 µM
# [20] = target: Death-associated protein kinase 2 (Homo sapiens) (UniProt Q9UIK4); conditions: at 10 µM
# [21] = target: T2, Discoidin domain-containing receptor 2 (Homo sapiens) (UniProt Q16832); conditions: at 10 µM
# T2 sequence (whole entry): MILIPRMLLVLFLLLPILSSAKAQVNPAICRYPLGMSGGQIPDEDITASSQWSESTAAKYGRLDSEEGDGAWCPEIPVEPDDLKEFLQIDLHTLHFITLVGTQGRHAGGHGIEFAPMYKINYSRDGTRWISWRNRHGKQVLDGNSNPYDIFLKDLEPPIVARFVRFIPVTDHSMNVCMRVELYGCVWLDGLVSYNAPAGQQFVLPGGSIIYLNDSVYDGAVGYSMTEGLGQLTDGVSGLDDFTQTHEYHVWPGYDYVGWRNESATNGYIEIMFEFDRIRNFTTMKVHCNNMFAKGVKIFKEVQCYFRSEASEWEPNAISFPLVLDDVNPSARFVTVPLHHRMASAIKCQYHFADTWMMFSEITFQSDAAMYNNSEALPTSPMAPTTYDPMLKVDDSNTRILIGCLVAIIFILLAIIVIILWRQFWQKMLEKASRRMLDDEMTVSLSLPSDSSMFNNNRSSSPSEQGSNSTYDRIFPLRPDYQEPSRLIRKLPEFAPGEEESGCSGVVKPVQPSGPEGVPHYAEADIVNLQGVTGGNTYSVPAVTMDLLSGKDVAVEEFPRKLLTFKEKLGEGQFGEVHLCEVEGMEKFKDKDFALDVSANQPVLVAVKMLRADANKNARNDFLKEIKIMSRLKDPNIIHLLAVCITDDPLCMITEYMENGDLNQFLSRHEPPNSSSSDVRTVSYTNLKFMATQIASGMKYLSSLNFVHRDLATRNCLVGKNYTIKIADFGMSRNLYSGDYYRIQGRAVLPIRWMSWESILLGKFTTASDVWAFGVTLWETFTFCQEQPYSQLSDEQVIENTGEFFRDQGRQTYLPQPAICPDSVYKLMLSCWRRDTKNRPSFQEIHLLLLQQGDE
# [22] = target: Serine/threonine-protein kinase 17A (Homo sapiens) (UniProt Q9UEE5); conditions: at 1 µM
# [23] = target: Dual specificity tyrosine-phosphorylation-regulated kinase 2 (Homo sapiens) (UniProt Q92630); conditions: at 1 µM
# [24] = target: T3, Ephrin type-A receptor 1 (Homo sapiens) (UniProt P21709); conditions: at 1 µM
# T3 sequence (whole entry): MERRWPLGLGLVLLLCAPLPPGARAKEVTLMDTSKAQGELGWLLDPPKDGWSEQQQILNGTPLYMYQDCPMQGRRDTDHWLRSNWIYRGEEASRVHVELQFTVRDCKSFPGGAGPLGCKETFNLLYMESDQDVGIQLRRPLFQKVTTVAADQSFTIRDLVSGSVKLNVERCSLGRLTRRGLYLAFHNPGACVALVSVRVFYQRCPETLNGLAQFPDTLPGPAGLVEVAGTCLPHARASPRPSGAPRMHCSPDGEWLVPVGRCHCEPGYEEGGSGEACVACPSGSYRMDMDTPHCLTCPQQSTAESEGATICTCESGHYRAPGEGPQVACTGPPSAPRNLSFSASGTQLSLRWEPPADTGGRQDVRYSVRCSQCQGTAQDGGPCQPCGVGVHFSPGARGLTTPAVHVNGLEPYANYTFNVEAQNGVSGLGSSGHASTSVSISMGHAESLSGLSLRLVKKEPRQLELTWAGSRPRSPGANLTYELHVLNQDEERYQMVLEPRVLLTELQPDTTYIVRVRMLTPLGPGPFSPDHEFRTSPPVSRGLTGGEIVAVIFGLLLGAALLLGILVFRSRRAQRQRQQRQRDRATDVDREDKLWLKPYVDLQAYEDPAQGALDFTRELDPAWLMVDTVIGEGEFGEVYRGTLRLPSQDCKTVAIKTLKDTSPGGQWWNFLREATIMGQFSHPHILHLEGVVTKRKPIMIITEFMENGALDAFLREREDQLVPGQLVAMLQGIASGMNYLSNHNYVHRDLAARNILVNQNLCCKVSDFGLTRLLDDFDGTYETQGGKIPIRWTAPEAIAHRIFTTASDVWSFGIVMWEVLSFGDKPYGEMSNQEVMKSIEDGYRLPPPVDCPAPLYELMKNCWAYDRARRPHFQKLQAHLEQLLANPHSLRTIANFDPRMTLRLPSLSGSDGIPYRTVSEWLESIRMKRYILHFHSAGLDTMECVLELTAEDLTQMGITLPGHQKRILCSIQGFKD
# [25] = target: T3, Ephrin type-A receptor 1 (Homo sapiens); conditions: at 10 µM
# [26] = target: Ephrin type-A receptor 2 (Homo sapiens) (UniProt P29317); conditions: at 10 µM
# [27] = target: T4, Ephrin type-A receptor 3 (Homo sapiens) (UniProt P29320); conditions: at 1 µM
# T4 sequence (whole entry): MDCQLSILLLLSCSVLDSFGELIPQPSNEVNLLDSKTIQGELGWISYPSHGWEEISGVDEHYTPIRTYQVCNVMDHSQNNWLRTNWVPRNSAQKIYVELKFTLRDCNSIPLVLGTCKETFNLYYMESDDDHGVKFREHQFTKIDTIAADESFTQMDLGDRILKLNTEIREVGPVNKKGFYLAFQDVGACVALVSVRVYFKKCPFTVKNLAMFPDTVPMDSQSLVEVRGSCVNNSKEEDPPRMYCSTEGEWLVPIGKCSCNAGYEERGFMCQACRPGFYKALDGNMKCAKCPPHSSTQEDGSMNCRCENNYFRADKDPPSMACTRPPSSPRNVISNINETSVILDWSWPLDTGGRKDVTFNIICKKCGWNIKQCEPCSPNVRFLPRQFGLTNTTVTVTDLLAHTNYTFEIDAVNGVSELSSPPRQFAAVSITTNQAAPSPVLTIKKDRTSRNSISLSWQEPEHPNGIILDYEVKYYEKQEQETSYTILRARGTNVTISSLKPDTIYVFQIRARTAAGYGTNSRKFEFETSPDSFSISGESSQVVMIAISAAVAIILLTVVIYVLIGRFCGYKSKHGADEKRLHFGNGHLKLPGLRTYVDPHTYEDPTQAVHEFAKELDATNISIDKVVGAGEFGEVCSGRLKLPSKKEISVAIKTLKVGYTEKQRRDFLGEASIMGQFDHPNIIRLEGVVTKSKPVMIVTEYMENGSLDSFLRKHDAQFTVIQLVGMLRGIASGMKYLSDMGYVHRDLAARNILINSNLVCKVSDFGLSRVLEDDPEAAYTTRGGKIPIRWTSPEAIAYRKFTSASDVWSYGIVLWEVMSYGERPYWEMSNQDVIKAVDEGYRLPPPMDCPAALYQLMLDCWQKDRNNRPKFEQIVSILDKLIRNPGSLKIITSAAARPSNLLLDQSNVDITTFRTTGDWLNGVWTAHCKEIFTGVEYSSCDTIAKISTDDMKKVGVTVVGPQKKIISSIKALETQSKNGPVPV
structure (smiles),measurement,setting,value
O=C1NC(=O)C(c2cn(CCCn3ccnc3)c3ccccc23)=C1Nc1ccccc1,residual activity,[1],inactive: 87%
same,residual activity,[2],98%
same,residual activity,[3],86%
same,residual activity,[4],99%
same,residual activity,[5],85%
same,residual activity,[6],86%
same,residual activity,[7],89%
same,residual activity,[8],101%
same,residual activity,[9],96%
same,residual activity,[10],85%
same,residual activity,[11],89%
same,residual activity,[12],95%
same,residual activity,[13],98%
same,residual activity,[14],84%
same,residual activity,[15],86%
same,residual activity,[16],91%
same,residual activity,[17],88%
same,residual activity,[18],89%
same,residual activity,[19],95%
same,residual activity,[20],101%
same,residual activity,[21],95%
same,residual activity,[22],98%
same,residual activity,[23],98%
same,residual activity,[24],84%
same,residual activity,[25],83%
same,residual activity,[26],98%
same,residual activity,[27],89%
